The subject of data set [1] is Salmonella typyhimurium TA 100. Put plainly: mutagenicity test (reverse mutation test) on hand sheet extract, Ministry of Labor Order No. 261. Type of data set: cell-based. The conditions noted are these: compared with Sample 3-1 and 4-1 (DMTT) or Sample 7-1 and 8-1 (bromonitroalcohol). As for the experimental part: The mutagenicity test was carried out according to Ministry of Labor, Labor Standards Office, Order No. 261 (May 18, 1985). That is, each hand sheet was subjected to extraction using a mixture of benzene/ethanol (9/1, by volume) at 80° C. for three hours, and the resulting extractant was subjected to a reverse mutation test using Salmonella typyhimurium TA 100 without following a metabolism activating method.
When the number of reverse mutation colony increased to twice or more that in the case of dimethyl sulfoxide used as a control solvent, it was determined "positive".
(§1) Measurement of the sizing degree, evaluation of the mutagenicity, and ninhydrin reaction in Table 3 and Table 4 were conducted in the same manner as in Table 1 and Table 2.

The test system of data set [2] is slime. The data set is described as follows: ninhydrin reaction of the paper stock filtrate (slime formation). The following applies: slime inhibition with slimecide added in advance to cationic starch; based on paper stock solid matter. As for the experimental part: A part of the paper stock as obtained above was stored at 32° C. for 7 days and then, filtered by means of a wire screen. The filtrate was subjected to ninhydrin reaction and the effectiveness of the slimecide controlling agent was evaluated based on the result of the ninhydrin reaction. The filtrate was called "Sample 1-2".
Ninhydrin reaction was effected by adding 0.5 ml of a 1% aqueous solution of nonhydrin to 10 ml of the filtrate, and the result was evaluated depending on the degree of color change of the resulting solution to reddish purple.
A part of the paper stock as obtained above was stored at 32° C. for 7 days and then, filtered by means of a wire net. The filtrate was subjected to ninhydrin reaction and the effectiveness of the slime controlling agent was evaluated based on the result of the ninhydrin reaction. The filtrate was called "Sample 5-2".
as §1

Turning to `CN1CSC(=S)N(C)C1` [DMTT, 3,5-dimethyltetrahydro-1,3,5-2H-thiadiazine-2-thione], the safety for man entry in data set [1] is on record as “very safe for man”. For the same molecule, the “amount of slimecide relative to amount added in conventional manner” value in data set [2] was “about 1/5”.
